Laboratory results as given in patent publication US20230405002A1, “COMBINATIONS OF DIACYLGLYCEROL ACYLTRANSFERASE 2 INHIBITORS AND ACETYL-COA CARBOXYLASE INHIBITOR” (Pfizer Inc., priority 2020, published 2023).

Tested on: adults with non-alcoholic fatty liver disease (NAFLD)
Conditions: NAFLD patients; ACCi 15 mg BID, DGAT2i 300 mg BID

COc1cc(C(=O)N2CCC3(CC2)CC(=O)c2c(cnn2C(C)C)C3)cc(-c2ccc(C(=O)O)cc2)n1 [Compound A, 4-(4-(1-isopropyl-7-oxo-1,4,6,7-tetrahydrospiro[indazole-5,4′-piperidine]-1′-carbonyl)-6-methoxypyridin-2-yl)benzoic acid]
subjects exceeding triglyceride threshold >400 mg/dl, total number (%): 11 (37.9) n (%)
subjects exceeding triglyceride threshold >600 mg/dl, total number (%): 4 (13.8) n (%)
subjects exceeding triglyceride threshold >800 mg/dl, total number (%): 3 (10.3) n (%)
